Values of other authors as cited in patent US20110027291A1, “METHODS, SYSTEMS AND PRODUCTS FOR PREDICTING RESPONSE OF TUMOR CELLS TO A THERAPEUTIC AGENT AND TREATING A PATIENT ACCORDING TO THE PREDICTED RESPONSE” (MERRIMACK PHARMACEUTICALS, INC., priority 2008, published 2011).

System: tumors known to express ErbB1 (EGFR)
Conditions: patients, even when tumors are known to express ErbB1 (EGFR); cited from earlier work

## cetuximab: monoclonal antibody that targets the epidermal growth factor receptor (EGFR, ErbB1)
  average response rate, monotherapy: 15-20 % of patients
